# In ChEMBL document CHEMBL1131221, “2'-C-Methyl analogues of selective adenosine receptor agonists: synthesis and binding studies” (J Med Chem, 1998):
# Sequences of proteins named here, by UniProt entry; tags and fusion partners are left off.
# UniProt P28647, whole entry: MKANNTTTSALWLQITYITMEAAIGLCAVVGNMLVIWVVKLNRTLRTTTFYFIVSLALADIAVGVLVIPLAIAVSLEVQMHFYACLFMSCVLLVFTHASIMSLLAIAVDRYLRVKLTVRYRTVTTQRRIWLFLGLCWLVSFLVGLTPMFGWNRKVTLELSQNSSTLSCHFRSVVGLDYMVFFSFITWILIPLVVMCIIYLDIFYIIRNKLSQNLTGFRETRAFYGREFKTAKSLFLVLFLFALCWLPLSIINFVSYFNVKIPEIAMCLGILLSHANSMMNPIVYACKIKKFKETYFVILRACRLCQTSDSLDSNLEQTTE
# Biological target: Adenosine receptor A3 (Rattus norvegicus, UniProt P28647)
# Test: Inhibitory activity against Adenosine A3 receptor by inhibiting specific [3H](R)-PIA binding to rat testis membranes
# Set-up: species or system Membrane
smiles,measurement,value
OC[C@H]1O[C@@H](n2cnc3c(NC4CCCC4)ncnc32)[C@H](O)[C@@H]1O [N6-CYCLOPENTYLADENOSINE],Ki,0.026 µM
